# According to ChEMBL document CHEMBL5321279 (J Med Chem, 2023):
# Key:
# [1] = cynomolgus monkey, in vivo, po, 5 mg/kg, 24 h
# [2] = dog, in vivo, iv, 1 mg/kg, 24 h
# [3] = monkey, in vivo, iv, 7.5 mg/kg
# [4] = rat, in vivo, po, 5 mg/kg, 24 h
# [5] = rat, in vivo, iv, 1 mg/kg, 24 h
# [6] = dog, in vivo, po, 5 mg/kg, 24 h
# [7] = chlorocebus sabaeus, in vivo, iv, 20 mg/kg, 24 h
# [8] = chlorocebus sabaeus, in vivo, po, 5 mg/kg, 24 h
smiles,measurement,setting,value
N#C[C@@]1(c2ccc3c(N)ncnn23)O[C@H](CO)[C@@H](O)[C@H]1O [GS-441524],Cmax,[1],0.54 µM
same,Cmax,[2],13.5 µM
same,Cmax,[3],~33 µM
same,Cmax,[4],1.11 µM
same,Cmax,[5],1.78 µM
same,Cmax,[6],27.3 µM
same,Cmax,[7],87.3 µM
same,Cmax,[8],0.36 µM
